Each structure is given as a SMILES string. Where “and” joins values, the source holds several entries; their conditions need not be identical. Equal entries are not always repeated. Only a part is listed here, and it is no random draw. Results filed as inconclusive are left out. Calls of active or inactive are those of the source. The call rests on the fitted dose curve.
On the % scale 0 is the no-effect control and ±100 the full control effect.

Chains of the proteins cited; added tags and fusions are not shown.
UniProt P11229, whole entry: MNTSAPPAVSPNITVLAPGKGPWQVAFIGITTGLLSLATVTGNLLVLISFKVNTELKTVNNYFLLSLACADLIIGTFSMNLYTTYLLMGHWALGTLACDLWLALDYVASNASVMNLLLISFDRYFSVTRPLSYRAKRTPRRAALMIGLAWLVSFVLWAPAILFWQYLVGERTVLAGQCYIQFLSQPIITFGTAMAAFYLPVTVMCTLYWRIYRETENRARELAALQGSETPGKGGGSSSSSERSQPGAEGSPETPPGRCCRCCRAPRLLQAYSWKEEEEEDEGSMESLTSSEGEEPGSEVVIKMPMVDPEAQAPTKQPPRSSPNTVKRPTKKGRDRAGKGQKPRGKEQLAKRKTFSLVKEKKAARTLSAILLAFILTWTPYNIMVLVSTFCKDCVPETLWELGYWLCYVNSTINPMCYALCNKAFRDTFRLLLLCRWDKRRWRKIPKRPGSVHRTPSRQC

For this assay, the target named is Muscarinic acetylcholine receptor M1 (Homo sapiens) (UniProt P11229). The assay is described as follows: Cholinergic receptor muscarinic 1 (CHRM1) small molecule antagonists, cell-based qHTS assay (AID 1963588). Further: nearly all actives have a fitted effect of over 40% in size. The settings on record: CHRM1-CHO antagonist mode, calcium flux fluorescence; at 61.5 µM (top of the series) unless noted. The text has this: National Center for Advancing Translational Sciences [NCATS]
Division of Preclinical Innovation [DPI]
U.S. Environmental Protection Agency [EPA]
National Institutes of Environmental Health Sciences [NIEHS]
National Toxicology Program [NTP]
U.S. Food and Drug Administration [FDA]
The CHRM1 is a muscarinic receptor. This receptor plays a crucial role in learning and memory processes and has long been identified as a promising therapeutic target for the improvement of cognitive decline in Alzheimer's disease (AD). The CHRM1-CHO cell line stably expressing human muscarinic acetylcholine receptor M1 (CHRM1) can be used for screening agonists and antagonists of interactions between CHRM1 and its ligands. The CHRM1-CHO Calcium Flux Assay is a homogeneous fluorescence-based assay for detecting the intracellular calcium level using FDSS kinetic plate reader system.
Tox21 Assay Protocol Summary:
CHRM1-CHO cells were dispensed at 1000 cells/3uL/well in 1536-well black-clear bottom plates using a Multidrop Dispenser. After the assay plates were incubated at a 37 C/5% CO2 incubator for 18 h, 3 uL of Dye Loading Buffer was transferred to the assay plate by a Flying Reagent Dispenser. The assay plates were incubated at 37 C for 1h. For antagonist mode, 23 nL of compounds dissolved in DMSO, positive controls or DMSO only was transferred to the assay plate by a pin tool. After 5 min incubation at room temperature, 1.5 uL of acetylcholine at 50nM was added to each well. The fluorescence intensity in the plates was measured using FDSS 7000EX kinetic plate reader for 3 min at 1 sec intervals. Each test compound was measured at 15 concentrations in three independent runs.
Turning to `Cc1ccc([N+](=O)[O-])cc1[N+](=O)[O-]`, the activity, negative = inhibition is inactive: 7.16%. For `N=C(N)N[N+](=O)[O-]` the value was inactive: 0.292%. The same measure for `N#CBr`: inactive: 15.6%. Take `O=[N+]([O-])OCC(CO[N+](=O)[O-])(CO[N+](=O)[O-])CO[N+](=O)[O-]`: the activity, negative = inhibition is inactive: 8.42%. As to `O=[N+]([O-])c1cccc([N+](=O)[O-])c1`, the activity, negative = inhibition is inactive: 35.4%.

Turning to `C/C1=C2N=C(/C=C3N=C(/C(C)=C4\[N-][C@@](C)([C@@H]5N=C1[C@](C)(CCC(=O)NC[C@@H](C)OP(=O)([O-])O[C@H]1[C@@H](O)[C@@H](n6cnc7cc(C)c(C)cc76)O[C@@H]1CO)[C@H]5CC(N)=O)[C@@](C)(CC(N)=O)[C@@H]4CCC(N)=O)[C@@](C)(CC(N)=O)[C@@H]\3CCC(N)=O)C(C)(C)[C@@H]/2CCC(N)=O.[C-]#N.[Co+3]`, the activity, negative = inhibition is inactive: 30.2% [at 28.3 µM]. Turning to `CN(C)CCCl`, the activity, negative = inhibition is inactive: -6.02%.

As to `CCN(CC)CCCl`, the activity, negative = inhibition was inactive: 12%.

On to `Cc1c([N+](=O)[O-])cccc1[N+](=O)[O-]`, for which the activity, negative = inhibition was inactive: 8.6% and inactive: -1.54%. The same measure for `CCOP(=O)(CC)Oc1ccc([N+](=O)[O-])cc1` (stereo unspecified): inactive: 13.1% [at 28.3 µM]; for `Nc1cc([N+](=O)[O-])cc([N+](=O)[O-])c1O`: inactive: -17.3%. For the compound `[NH4+].[O-][Cl+3]([O-])([O-])[O-]`, the activity, negative = inhibition was inactive: -6.24% and inactive: 74%. For `CP(=O)(O)OCCC[Si](O)(O)O` the value was inactive: 32.5%; for `Cc1ccc([N+](=O)[O-])c([N+](=O)[O-])c1`, inactive: -7.28%. Take `Cc1cccc([N+](=O)[O-])c1[N+](=O)[O-]`: the activity, negative = inhibition was inactive: 17.3% [at 28.3 µM].

With `CCOP(=O)(CC)OCC`, the activity, negative = inhibition was inactive: -19.8%. For `CC(C)OP(C)(=O)OC(C)C` the value was inactive: 7.91% and inactive: 23.2%; for `CC(C)N(CCO)C(C)C`, inactive: -11.7%. With `COc1ccc([N+](=O)[O-])cc1[N+](=O)[O-]`, the activity, negative = inhibition is inactive: 11.2%. As to `COP(C)(=O)OC`, the activity, negative = inhibition is inactive: 21.1% and inactive: 69.1%. In the case of `O=[N+]([O-])[O-].[NH4+]`, the activity, negative = inhibition is inactive: -9.73% and inactive: 3.94%.

(Values after PubChem BioAssay (Tox21).)
